The nature of series [1]: DTX loading, concentration by HPLC. The series is classed as physicochemical. The settings on record: dendrimers conjugated with TZ after DTX loading.
The nature of series [2]: In vitro drug release, dialysis method in PBS. Format: physicochemical. Conditions: PBS pH 7.4. On the procedure: In vitro drug release was studied using a dialysis method in PBS (pH 7.4). Taxotere and dendrimer formulations, equivalent to 2 mg of DTX, were placed in dialysis tubing (MWCO 2000) in release medium (100 mL of PBS) at 37 °C and stirred at 100 rpm. At different time intervals, an aliquot of 1 mL was withdrawn from the release medium and replaced with the same volume of fresh medium. The samples were appropriately diluted, filtered through a 0.22 μm nylon filter, and analyzed with HPLC for DTX content.

Series [3] relates to MDA-MB-231 cells (HER2-negative). Description: Anti-proliferation assay (MTT). The series is classed as cell-based, human. Conditions: MDA-MB-231, 48 h of incubation.
Series [4] deals with MDA-MB-453 cells. The series can be described thus: AO/EB double-staining assay (qualitative apoptosis). Format: cell-based, human. Conditions: 56 ng/mL DTX equivalent, 24 h. The procedure:
AO/EB assays were used to visualize changes in cell morphology, such as chromatin condensation and apoptotic body formation, which are characteristic of apoptosis. […] After 24 h, the medium was removed and cells were washed twice in PBS before being incubated in PBS-containing AO and EB (5 μg/mL of each) at 37 °C for 10 min.

The test system of series [5] is MDA-MB-453 cells. The series can be described thus: Annexin V-FITC/PI apoptosis assay. Format: cell-based, human. Conditions: 56 ng/mL, 24 h. On the procedure: To evaluate apoptosis and necrosis, we used Annexin V-FITC/PI assays, as per the manufacturer’s protocols. Briefly, MDA-MB-453 cells (1 × 10^6 cells/well) were seeded in six-well plates and maintained at 37 °C in 5% CO2 and a 95% humidified atmosphere. The medium was replaced with freshly prepared medium containing drug-loaded formulations. Untreated cells were used as controls. After 24 h, cells were washed twice with PBS and resuspended in 500 μL of binding buffer. We added 5 μL of FITC-conjugated Annexin V and 10 μL of PI, and incubated cells for 15 min at room temperature in the dark. Cells were then analyzed by a Muse™ Cell Analyzer (Merck-Millipore, Germany) and the extent of apoptosis and necrosis was determined.

Series [6] in a line: Pharmacokinetic study, plasma DTX after intravenous injection. The series is classed as in vivo, Balb/c mice. The settings on record: versus Taxotere.
Series [7] concerns MDA-MB-453 cells (HER2-positive). Description: Anti-proliferation assay (MTT).

“And” between values parts separate entries of the source, which are not always exact repeats. Equal entries are not always repeated.

In turn, TZ-Dend-DTX came in with a DTX concentration in series [1] of 216.4 ± 2.79 µg/mL. Besides, the DTX released in series [2] (after 24 h) is reported as 58.6%. Also, in series [2] (after 48 h), the DTX released is reported as 73.9%. This substance also displayed an IC50 in series [3] of 0.1495 µg/mL. Besides, the “apoptosis (qualitative, AO/EB staining)” value in series [4] is listed as “greater apoptosis than those treated with Dend-DTX”. For the same substance, in series [5], the live cells is given as 54.4% and the “total percentage of apoptotic cells” value is given as 42.6%. Also, in series [6], the “AUC0−∞ times higher than that of Taxotere” value was “approximately 4.7 times” and the MRT increase entry is given as “approximately 3.4 times”. Moreover, in series [7] (MDA-MB-453, 48 h of incubation), the IC50 was 0.0562 ± 0.0029 µg/mL and 0.05618 µg/mL. Further, the “times more cytotoxic than Dend-DTX” value in series [7] (ratio of IC50 values, MDA-MB-453) stood at 3.57 times.

As a reminder, the IC50 is the concentration at which inhibition is half-maximal. Low values mean inhibition by little substance, high ones a need for much substance.

The record behind these values is paper PMC4823704, “Trastuzumab-grafted PAMAM dendrimers for the selective delivery of anticancer drugs to HER2-positive breast cancer” (Scientific Reports, 2016).
